By UniProt entry, the sequences of proteins in these tests, tags left out. Where a name states a change or a piece, a line headed by the entry shows the natural chain unless it says otherwise.
UniProt P41145: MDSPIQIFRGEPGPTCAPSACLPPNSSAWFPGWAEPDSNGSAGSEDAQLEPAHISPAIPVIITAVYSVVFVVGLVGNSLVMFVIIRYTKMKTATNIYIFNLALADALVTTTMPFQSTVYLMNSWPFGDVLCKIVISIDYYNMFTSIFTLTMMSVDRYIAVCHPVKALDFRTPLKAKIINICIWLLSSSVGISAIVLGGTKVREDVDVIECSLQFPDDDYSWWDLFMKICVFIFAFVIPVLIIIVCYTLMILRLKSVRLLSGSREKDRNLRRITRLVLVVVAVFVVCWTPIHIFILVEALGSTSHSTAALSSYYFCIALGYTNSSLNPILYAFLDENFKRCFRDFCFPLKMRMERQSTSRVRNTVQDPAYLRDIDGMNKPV

In PMC3602246 (BMC Pharmacology & Toxicology, 2013):

How the values were obtained:
[1] = biological target: T1, human kappa opioid receptor (Homo sapiens, UniProt P41145); type: cell-based
T1 construct: FLAG; expressed in transfected cells

[2] = biological target: T1, human kappa opioid receptor; type: cell-based; remark: listed apart in the source
[3] = biological target: MOR; conditions: read-out: Ki, affinity binding to the MOR; cited from earlier work
[4] = biological target: DOR; conditions: read-out: Ki, affinity binding to the DOR; cited from earlier work
[5] = biological target: KOR; conditions: read-out: Ki, affinity binding to the KOR; cited from earlier work

| Substance | DMR agonist activity classification, KOR [1] | ligand DMR in PTX-pretreated cells [2] | Ki [3] | Ki [4] | Ki [5] |
| --- | --- | --- | --- | --- | --- |
| Dynorphin A (1–13) | Full agonist | detectable P-DMR | – | – | – |
| (Leu5)-Enkephalin | – | – | 7.4 nM | 6.2 nM | 9.4 nM |
